{"sequences": {"note": "Sequences of proteins named here, by UniProt entry; tags and fusion partners are left off. A change or cut given only in a name is not applied to a line headed by its entry.", "UniProt Q9Z0U4": "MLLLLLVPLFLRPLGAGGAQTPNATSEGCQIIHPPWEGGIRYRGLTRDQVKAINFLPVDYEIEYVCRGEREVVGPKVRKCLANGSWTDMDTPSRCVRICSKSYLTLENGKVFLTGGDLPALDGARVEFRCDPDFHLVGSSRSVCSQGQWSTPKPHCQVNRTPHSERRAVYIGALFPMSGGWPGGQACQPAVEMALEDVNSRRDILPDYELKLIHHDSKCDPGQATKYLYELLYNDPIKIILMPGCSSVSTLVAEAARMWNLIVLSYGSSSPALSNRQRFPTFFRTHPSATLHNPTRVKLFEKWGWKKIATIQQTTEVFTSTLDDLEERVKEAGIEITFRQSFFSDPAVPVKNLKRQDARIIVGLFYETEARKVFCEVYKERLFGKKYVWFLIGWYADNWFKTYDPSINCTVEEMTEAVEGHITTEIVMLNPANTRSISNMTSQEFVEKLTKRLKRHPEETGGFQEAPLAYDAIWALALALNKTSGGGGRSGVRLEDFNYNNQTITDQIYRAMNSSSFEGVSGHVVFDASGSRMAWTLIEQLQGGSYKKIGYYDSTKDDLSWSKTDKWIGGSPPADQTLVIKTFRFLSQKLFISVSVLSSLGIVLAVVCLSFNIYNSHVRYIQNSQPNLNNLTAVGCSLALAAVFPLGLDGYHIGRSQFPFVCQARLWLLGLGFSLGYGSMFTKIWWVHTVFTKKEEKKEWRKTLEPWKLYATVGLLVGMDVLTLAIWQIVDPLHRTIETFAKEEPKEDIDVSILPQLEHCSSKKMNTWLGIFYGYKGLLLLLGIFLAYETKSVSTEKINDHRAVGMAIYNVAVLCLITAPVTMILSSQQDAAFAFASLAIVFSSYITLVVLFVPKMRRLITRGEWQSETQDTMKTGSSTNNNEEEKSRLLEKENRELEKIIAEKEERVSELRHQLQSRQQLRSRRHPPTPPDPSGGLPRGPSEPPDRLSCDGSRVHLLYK", "UniProt P11275": "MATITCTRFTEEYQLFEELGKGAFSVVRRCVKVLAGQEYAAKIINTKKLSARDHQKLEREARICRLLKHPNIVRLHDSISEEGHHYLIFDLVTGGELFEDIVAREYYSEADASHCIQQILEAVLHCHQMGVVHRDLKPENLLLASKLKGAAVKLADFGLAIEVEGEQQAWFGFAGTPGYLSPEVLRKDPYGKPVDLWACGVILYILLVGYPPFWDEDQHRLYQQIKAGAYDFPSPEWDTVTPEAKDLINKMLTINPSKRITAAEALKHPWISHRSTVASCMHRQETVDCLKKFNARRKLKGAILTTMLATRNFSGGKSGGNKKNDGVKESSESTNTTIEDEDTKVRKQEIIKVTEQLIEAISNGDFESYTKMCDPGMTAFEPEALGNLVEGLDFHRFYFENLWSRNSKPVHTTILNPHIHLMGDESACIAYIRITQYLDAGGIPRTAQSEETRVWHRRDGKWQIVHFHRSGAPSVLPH"}, "source": "patent US7838556B2", "about": "(priority 2006, dated 2010)", "key": {"GABA receptors": {"system": "GABA receptors", "assay": "displacement of [3H]GABA from GABA receptors (subtype not given)", "format": "binding, rat", "conditions": "in words"}, "GABAB receptors": {"target": "GABAB receptors (Rattus norvegicus, UniProt Q9Z0U4)", "assay": "inhibition of [3H]GABA binding to GABAB receptors", "conditions": "ligand 1 Mm; [3H]GABA (10 Nm); rat cerebellum membranes; mean±S.E.M."}, "[1]": {"target": "GHB receptors (GHB sites) (Rattus norvegicus, UniProt P11275)", "assay": "[3H]NCS-382 displacement at GHB sites", "format": "binding"}, "GABAA receptors": {"system": "GABAA receptors", "assay": "inhibition of [3H]GABA binding to GABAA receptors", "conditions": "ligand 1 Mm; [3H]GABA (10 Nm); rat cerebral cortex membranes; mean±S.E.M."}}, "data": [{"substance": "phenylpropyl ether of 3-hydroxyphenylacetic acid", "values": [{"measurement": "affinity at GABA receptors / displacement of [3H]GABA compared with 3-hydroxyphenylacetic acid", "setting": "GABA receptors", "result": "decreased"}, {"measurement": "Percent displacement of [3H]GABA at 1 Mm, GABAB", "setting": "GABAB receptors", "result": "6.0 ± 2.6", "unit": "%"}, {"measurement": "GHB receptor affinity compared with 3-hydroxyphenylacetic acid", "setting": "[1]; in words", "result": "increased slightly"}, {"measurement": "IC50", "setting": "[1]; read-out: [3H]NCS382 IC50 (μM) GHB sites, [3H]NCS-382 (16 Nm), rat cerebrocortical membranes, mean±S.E.M.", "result": 4.5, "unit": "µM"}, {"measurement": "Percent displacement of [3H]GABA at 1 Mm, GABAA", "setting": "GABAA receptors", "result": "17.4 ± 13.2", "unit": "%"}]}]}
